The values that follow come from patent US4777182A, “6-Amidino-2-naphthyl 4-guanidinobenzoate derivatives and pharmaceutical composition containing them” (Torii & Co., Ltd., priority 1984, dated 1988).

The target in the assay is Thrombin (Homo sapiens, UniProt P00734). The note with it: read-out: ID50, Thrombin; TAME hydrolysis.

Molecules are shown by their SMILES.

Consider `N=C(N)c1ccc2cc(OC(=O)c3ccc(NC4=NCCN4)cc3)ccc2c1` [Compound No. 2, 6-amidino-2-naphthyl 4-(2-imidazolinyl)amino-benzoate], for which the IC50 amounted to 3 µM.
